For the assay, the system named is STAT5 phosphorylation in KHYG-1 (JAK3 wild-type) cell line. The assay is described as follows: pSTAT5 immunoblotting in KHYG-1 cells treated with CP-690,550. In kind it is cell-based. The following applies: KHYG-1, increasing concentrations of CP-690,550, 48 h. The protocol:
Experiments were repeated at least three times.
NK-S1 is a cell line established from a previously described NKTCL xenograft(7). The xenograft was derived from metastatic tumor of the testis from the same patient found to have both JAK1 (Y652D) and JAK3 (A572V) mutations. NK-S1 was cultured for more than 60 passages in DMEM medium supplemented with antibiotics, heat-inactivated FBS (10%) and equine serum (ES) (10%). […] KHYG-1 is an IL-2 dependent aggressive NK leukemia cell line obtained from the Japanese Collection of Research Bioresources, and it was cultured in RPMI medium supplemented with antibiotics, heat-inactivated FBS (10%), ES (10%) and 200 IU/ml of recombinant human IL-2 (Proleukin, Novartis)^7. […] K562 (CCL-234, ATC) is a chronic myeloid leukemia (CML) cell line positive for the BCR-ABL fusion gene.
Cells were washed with ice-cold phosphate buffer saline (PBS) and lysed in 50 μl of ice-cold RIPA buffer [25 mM Tris-HCL, pH 7.6, 150 mM NaCl, 1% Nonidet P-40, 1% sodium deoxycholate, 0.1% SDS, 1× Phosphatase Inhibitor (Cat. No. 78420, Thermo Fisher Scientific), 1× Protease Inhibitor (Cat. No. 12978000, Roche Diagnostics) and 1 mM Sodium Orthovanadate]. […] After centrifugation at 14,000 g for 15 minutes at 4° C., supernatants were removed and protein concentration was determined using Bio-Rad Protein assay (Cat. No. 500-0006, Bio-Rad Laboratories). […]

This is an account of results in patent publication US10378062B2, “Natural-killer/T-cell lymphoma (NKTCL) susceptibility prediction, diagnosis and therapy” (SINGAPORE HEALTH SERVICES PTE LTD, priority 2011, dated 2019).

SMILES strings stand for the structures.

Regarding `C[C@@H]1CCN(C(=O)CC#N)C[C@@H]1N(C)c1ncnc2[nH]ccc12` [CP-690,550, 3-[(3R,4R)-4-methyl-3-[methyl(7H-pyrrolo[2,3-d]pyrimidin-4-yl)amino]piperidin-1-yl]-3-oxopropanenitrile], the “pSTAT5 level by immunoblotting” value is “dose-dependent reduction of pSTAT5”.
